Measurements as given in publication PMC11273436 (Antibiotics, 2024).
Ends that are not written are not given here.

What was measured:
[1] = system: Ifnb, Isg15, Mx1 expression in Raw264.7 cells; conditions: mouse Raw264.7 cells, 6 h or 12 h, qPCR relative to Hprt
[2] = system: H1N1 virus; conditions: read-out: IC50 against H1N1 infection; A549 cells, mean ± SEM, 3 independent experiments

| Substance | expression of type I interferon and its downstream genes [1] | IC50 [2] [µM] |
| --- | --- | --- |
| VCVKKVRKLYKKIYKCR-NH2 (disulfide) [Pc-5] | substantially upregulated | – |
| VVKKVRKLYKKIYKR-NH2 [Pc-4] | – | 8.14 ± 3.94 |
